{
  "source": "PubChem BioAssay AID686970",
  "about": "(National Center for Advancing Translational Sciences (NCATS), 2013)",
  "note": "Only a part is listed here, and it is no random draw. Inconclusive results are not listed. The source made the active and inactive calls. Calls come from the whole dose curve; as a rule, active = well fitted cell-killing curve with a large enough effect; inconclusive = small, poorly fitted or top-dose-only effect, or effect the other way; inactive = flat fitted curve, though single readings scatter. Potency is the fitted concentration of half-maximal effect.",
  "data": [
    {"assay": "qHTS for induction of synthetic lethality in tumor cells producing 2HG: qHTS for the HT-1080-NT fibrosarcoma cell line;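 note: NT is the 2HG producing partner of a matched IDH1 knockdown line; nearly all actives have a fitted effect of over 55% in size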;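 for activity, negative = less viability: 0% = DMSO-treated cells and -100% = media-only wells without cells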", "settings": "HT-1080-NT fibrosarcoma viability, CellTiter-Glo ATP luminescence, 48 h; series mostly up to 46.1 µM; activity, negative = less viability: at the top concentration", "values": [
      {"molecule": "CP(=O)(OC12CC3CC(CC(C3)C1)C2)OC12CC3CC(CC(C3)C1)C2", "activity, negative = less viability": "inactive: 13.7%"},
      {"molecule": "Nc1ccc2c(ccc3cccnc32)n1.O=[N+]([O-])c1cc([N+](=O)[O-])c(O)c([N+](=O)[O-])c1", "activity, negative = less viability": "inactive: -0.271%"},
      {"molecule": "O=C(OCCCN1CCCC1)C(O)(c1ccccc1)C1CCCCC1", "note": "(stereo not given)", "activity, negative = less viability": "inactive: -19.4%"},
      {"molecule": "COc1ccccc1OP(C)(=O)Nc1c(C)n(C)n(-c2ccccc2)c1=O", "note": "(stereo not given)", "activity, negative = less viability": "inactive: 6.05%"},
      {"molecule": "CCc1ccc(OP(C)(=O)Nc2cccnc2)cc1", "note": "(stereo not given)", "activity, negative = less viability": "inactive: 0.99%"},
      {"molecule": "CP(=O)(Oc1ccccc1)N1CCOC1=O", "note": "(stereo not given)", "activity, negative = less viability": "inactive: -1.22%"},
      {"molecule": "COc1ccc(OP(C)(=O)Nc2ccc(Br)cc2)cc1", "note": "(stereo not given)", "activity, negative = less viability": "inactive: -0.297%"},
      {"molecule": "CCN(CC)CC(O)COC(=O)C(O)(c1ccccc1)C1CCCCC1", "note": "(stereo not given)", "activity, negative = less viability": "inactive: -1.33%"},
      {"molecule": "CN(C)C(=O)c1c([N+](=O)[O-])cc([N+](=O)[O-])cc1[N+](=O)[O-]", "activity, negative = less viability": "inactive: -17.6%"},
      {"molecule": "COc1ccccc1OP(C)(=O)Nc1ccccc1Br", "note": "(stereo not given)", "activity, negative = less viability": "inactive: -14.6%"},
      {"molecule": "CC(C)(C)c1ccc(OP(C)(=O)O)cc1", "activity, negative = less viability": "inactive: 3.97% [at 9.24 µM]"},
      {"molecule": "CP(=O)(Nc1ccc(Cl)cc1)Oc1ccc(F)cc1", "note": "(stereo not given)", "activity, negative = less viability": "inactive: 12.4%"},
      {"molecule": "CN(C)CCOC(=O)C(O)(c1ccccc1)C1CCCC1", "note": "(stereo not given)", "activity, negative = less viability": "inactive: 3.58%"},
      {"molecule": "COc1ccccc1OP(C)(=O)Nc1ccc(Br)cc1", "note": "(stereo not given)", "activity, negative = less viability": "inactive: -18.3%"},
      {"molecule": "COc1ccccc1OP(C)(=O)Nc1ccc(C)cc1C", "note": "(stereo not given)", "activity, negative = less viability": "inactive: 4.75%"},
      {"molecule": "CP(=O)(Nc1ccccn1)Oc1ccccc1", "note": "(stereo not given)", "activity, negative = less viability": "inactive: 0.602%"},
      {"molecule": "CCc1ccc(OP(C)(=O)O)cc1", "activity, negative = less viability": "inactive: -1.42%"},
      {"molecule": "Cc1c(NP(C)(=O)Oc2ccc(C(C)C)cc2)c(=O)n(-c2ccccc2)n1C", "note": "(stereo not given)", "activity, negative = less viability": "inactive: 18.6%"},
      {"molecule": "O=[N+]([O-])c1cc([N+](=O)[O-])c(Nc2ccccn2)c([N+](=O)[O-])c1", "Potency": "active: 16.4 µM"},
      {"molecule": "COc1ccccc1OP(C)(=O)Nc1ccc(C)c(C)c1", "note": "(stereo not given)", "activity, negative = less viability": "inactive: -1.44%"},
      {"molecule": "COc1ccc(OP(C)(=O)Nc2ccccc2Br)cc1", "note": "(stereo not given)", "activity, negative = less viability": "inactive: 17.9%"},
      {"molecule": "Cc1cc(C)cc(OP(C)(=O)Nc2cccc(C(F)(F)F)c2)c1", "note": "(stereo not given)", "activity, negative = less viability": "inactive: -18.8%"},
      {"molecule": "CCCCCCCCCCCCCCCC1C[N+](C)(C)CCOP(C)(=O)O1", "note": "(stereo not given)", "activity, negative = less viability": "inactive: -8.85%"},
      {"molecule": "CP(=O)(Nc1ccc(Cl)cc1Cl)Oc1ccccc1", "note": "(stereo not given)", "activity, negative = less viability": "inactive: -24.3%"},
      {"molecule": "CP(=O)(OCCOc1ccccc1)OCCOc1ccccc1", "activity, negative = less viability": "inactive: 15.1%"}
    ]}
  ]
}
